Apparent affinities of Ab-95 variants for a coronavirus HR2 peptide

Reference: Engelhart et al. 2022, doi:10.1038/s41597-022-01779-4. File: FLAb, binding data.

Target: peptide PDVDLGDISGINAS, taken from heptad repeat 2 (HR2) of SARS-CoV-2 spike.

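In library AAYL52, one, two or three CDR residues were substituted; doubles and triples were drawn at random. Affinity was read by AlphaSeq, a pooled yeast mating assay with surface-displayed partners. Binding brings cells together so that they mate, and sequencing counts the barcode pairs among the diploids. Each replicate has its own calibration line, from reference interactions of the BCL2 family. The assay was run in three technical replicates.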

The variants keep the heavy chain, the linker and the frameworks of Ab-95 (scFv order VH, three GGGGS repeats, VL).
VH: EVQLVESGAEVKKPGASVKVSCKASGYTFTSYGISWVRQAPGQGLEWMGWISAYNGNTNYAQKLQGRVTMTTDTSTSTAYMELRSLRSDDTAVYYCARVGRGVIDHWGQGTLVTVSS
VL: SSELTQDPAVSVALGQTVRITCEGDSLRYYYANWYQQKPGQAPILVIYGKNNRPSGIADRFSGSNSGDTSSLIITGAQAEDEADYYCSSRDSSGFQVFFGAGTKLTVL

The whole VL of each variant is written out. All variants listed here change G24 of the VL, counted from its first residue. Values are apparent Kd, the geometric mean of the replicates that gave a signal; lower means stronger binding. Where no diploid with the target was found in any replicate, the entry reads "no signal": below detection, most likely a poor binder, though not proof of it. For reference, the parent read 200 nM as the reference entry and 180 nM as a member of this library.

Variant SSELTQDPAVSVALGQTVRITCEHDSLRYYYSNWYQQKPGQAPILVIYGKNNRPSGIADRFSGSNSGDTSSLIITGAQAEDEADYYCSSRDSLGFQVFFGAGTKLTVL showed 1.4 µM (3 of 3 replicates; controls 6 of 9). Variant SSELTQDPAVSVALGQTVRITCEWDSLRYYGANWYQQKPGQAPILVIYRKNNRPSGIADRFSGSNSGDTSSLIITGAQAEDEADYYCSSRDSSGFQVFFGAGTKLTVL gave 56 µM (2 of 3 replicates; controls 0 of 9). With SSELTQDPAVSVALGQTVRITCEANSLRYYYANWYQQKPGQAPILVIYDKNNRPSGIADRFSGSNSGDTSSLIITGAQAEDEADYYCSSRDSSGFQVFFGAGTKLTVL the result was 1.5 µM (3 of 3 replicates; controls 3 of 9). Variant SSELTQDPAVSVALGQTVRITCESDSVRYYYANWYQQKPGQAPILVIYGKNNRPSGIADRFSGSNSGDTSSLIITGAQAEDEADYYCSSRDSSGFVVFFGAGTKLTVL gave no signal (0 of 3 replicates; controls 0 of 9). With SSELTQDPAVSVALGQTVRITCEIDSLRYYYANWYQQKPGQAPILVIYGKNLRPSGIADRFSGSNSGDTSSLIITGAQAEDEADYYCSSRDSSEFQVFFGAGTKLTVL the result was 5.0 µM (3 of 3 replicates; controls 3 of 9).

Variant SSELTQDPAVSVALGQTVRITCEEDSLRYYYANWYQQKPGQAPILVIYGKNNRPSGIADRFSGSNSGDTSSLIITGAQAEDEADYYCSSRDNSGFQVFFGAGTKLTVL showed 8.5 µM (1 of 3 replicates; controls 2 of 9). With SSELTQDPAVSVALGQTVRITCEKDSLRYYYANWYQQKPGQAPILVIYGDNNRPSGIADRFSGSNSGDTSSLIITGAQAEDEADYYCPSRDSSGFQVFFGAGTKLTVL the result was no signal (0 of 3 replicates; controls 1 of 9). For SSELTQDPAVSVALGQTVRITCEIDSLRYYYANWYQQKPGQAPILVIYGKNNRPSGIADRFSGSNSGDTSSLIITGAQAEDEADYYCSSCDSSGFFVFFGAGTKLTVL, the assay gave no signal (0 of 3 replicates; controls 4 of 9). With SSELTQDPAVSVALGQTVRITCEKDSLRYYYANWYQQKPGQAPILVIYGKNNRPSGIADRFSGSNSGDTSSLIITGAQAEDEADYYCSSADSSGFEVFFGAGTKLTVL the result was 61 µM (3 of 3 replicates; controls 3 of 9). With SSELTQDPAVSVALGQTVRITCESDSLRIYYANWYQQKPGQAPILVIYGKNNRPSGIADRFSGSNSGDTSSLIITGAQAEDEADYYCSSRDSSGEQVFFGAGTKLTVL the result was no signal (0 of 3 replicates; controls 2 of 9).

Variant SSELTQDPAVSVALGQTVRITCEHDSLRCYYANWYQQKPGQAPILVIYGKNNRPSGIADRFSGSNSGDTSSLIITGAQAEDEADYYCSSRCSSGFQVFFGAGTKLTVL showed 2.4 µM (1 of 3 replicates; controls 3 of 9). Variant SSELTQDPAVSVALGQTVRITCEDDSLRYYYANWYQQKPGQAPILVIYGKSNRPSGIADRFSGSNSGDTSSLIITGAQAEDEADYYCSSSDSSGFQVFFGAGTKLTVL showed 20 µM (3 of 3 replicates; controls 4 of 9). Variant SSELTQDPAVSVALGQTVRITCEKDSCRYGYANWYQQKPGQAPILVIYGKNNRPSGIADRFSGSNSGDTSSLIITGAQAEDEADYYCSSRDSSGFQVFFGAGTKLTVL showed 780 nM (3 of 3 replicates; controls 4 of 9). With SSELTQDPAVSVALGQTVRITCEYHSLRYYYANWYQQKPGQAPILVIYGKNNRPSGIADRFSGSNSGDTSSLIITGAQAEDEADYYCSSRDHSGFQVFFGAGTKLTVL the result was 12 µM (3 of 3 replicates; controls 4 of 9). For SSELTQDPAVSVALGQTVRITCEVDSLRYYYANWYQQKPGQAPILVIYEKNNRPSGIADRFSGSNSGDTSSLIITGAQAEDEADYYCSSRDSSGFQEFFGAGTKLTVL, the assay gave 15 µM (1 of 3 replicates; controls 6 of 9).

With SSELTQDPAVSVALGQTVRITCEEDSLRYYYALWYQQKPGQAPILVIYGKNNRPSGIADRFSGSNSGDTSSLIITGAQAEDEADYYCSSRDCSGFQVFFGAGTKLTVL the result was 10 µM (3 of 3 replicates; controls 2 of 9). Variant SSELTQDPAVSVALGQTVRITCEVDSLRYYYANWYQQKPGQAPILVIYGKNNRPSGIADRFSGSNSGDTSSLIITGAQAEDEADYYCSSRDSLGFQAFFGAGTKLTVL showed 2.8 µM (1 of 3 replicates; controls 0 of 9). For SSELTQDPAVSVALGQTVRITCESDSLRYYYANWYQQKPGQAPILVIYPENNRPSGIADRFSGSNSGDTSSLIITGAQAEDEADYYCSSRDSSGFQVFFGAGTKLTVL, the assay gave no signal (0 of 3 replicates; controls 2 of 9).

A selection of 2 entries from above:

VL	apparent Kd	seen in	control signals
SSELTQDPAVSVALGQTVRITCEHDSLRYYYSNWYQQKPGQAPILVIYGKNNRPSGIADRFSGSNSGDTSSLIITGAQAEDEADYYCSSRDSLGFQVFFGAGTKLTVL	1.4 µM	3/3	6/9
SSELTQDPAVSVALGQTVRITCEKDSCRYGYANWYQQKPGQAPILVIYGKNNRPSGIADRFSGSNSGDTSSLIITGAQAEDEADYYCSSRDSSGFQVFFGAGTKLTVL	780 nM	3/3	4/9

Background: pairings of library AAYL52 with three empty control strains gave a value in 28% of cases (median 8.2 µM, 5th percentile 800 nM). Values in that range, when seen in few replicates, are hard to tell from nonspecific mating. Also given: how often the same scFv was detected with the empty control strains.